Several values for one entry are separate records, joined by “and”; a condition that tells them apart may be missing. Equal values may be shown once. The list shows a part of the results, in another mix than the full data. Some structures have more than one record in an assay (separate samples or runs), and their calls can disagree. Activity calls are given as the source filed them. No stated cut-off is given here; in the data, active means growth inhibition above about 70%; inactive means the rest.
Tests used:
[1] = NCI Yeast Anticancer Drug Screen. Data for the rad50 strain (AID 155);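 further: 0% = growth of vehicle-only cultures of the same strain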; settings: S. cerevisiae rad50 strain growth inhibition, active compounds read high
[2] = NCI Yeast Anticancer Drug Screen. Data for the mec2-1 strain (AID 157); settings: S. cerevisiae mec2-1 strain, active compounds read high
[3] = NCI Yeast Anticancer Drug Screen. Data for the sgs1 mgt1 strain (AID 161);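 further: 0% = growth of cultures given vehicle only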; settings: S. cerevisiae sgs1 mgt1 strain, active compounds read high
[4] = NCI Yeast Anticancer Drug Screen. Data for the cln2 rad14 strain (AID 165);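 further: 0% = growth equal to vehicle treated cultures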; settings: S. cerevisiae cln2 rad14 strain, active compounds read high
[5] = NCI Yeast Anticancer Drug Screen. Data for the bub3 strain (AID 167); settings: S. cerevisiae bub3 mutant strain, active compounds read high
[6] = NCI Yeast Anticancer Drug Screen. Data for the mlh1 rad18 strain (AID 175); settings: S. cerevisiae mlh1 rad18 strain growth inhibition, active compounds read high
[7] = at 5.0 µM (retest, dose inferred, filed as 0.5)
[8] = at 50.0 µM (retest, dose inferred, filed as 5.0)

Measured: growth inhibition

CCC(CO)Nc1c([N+](=O)[O-])cc([N+](=O)[O-])cc1[N+](=O)[O-] (stereo unspecified)
active: [1]; [8] 85% | [1]; at 50.0 µM 88.9% | [2]; [8] 94% | [2]; at 50.0 µM 86.5% | [3]; [8] 93% | [3]; at 50.0 µM 94.2% | [4]; [8] 91% | [4]; at 50.0 µM 92.3% | [5]; [8] 87% | [5]; at 50.0 µM 90.5% | [6]; [8] 94% | [6]; at 50.0 µM 95.7%
inactive: [1]; [7] 7% | [2]; [7] 9% | [3]; [7] 3% | [4]; [7] 4% | [5]; [7] 12% | [6]; [7] 18%

CC(C)c1nc(Nc2ccccc2)n(P(=O)(N(C)C)N(C)C)n1
inactive: [1]; at 1.2 µM 4% | [1]; at 3.7 µM 12% | [1]; [7] 44% | [1]; at 11.0 µM 3% | [1]; at 33.0 µM 67% | [2]; at 1.2 µM 10% | [2]; at 3.7 µM 9% | [2]; [7] 49% | [2]; at 11.0 µM 15% | [2]; at 33.0 µM 50% | [2]; at 50.0 µM 62.5% | [3]; [7] -27% | [3]; [8] 16% | [4]; [7] 68% | [4]; [8] 45% | [5]; at 1.2 µM 13% | [5]; at 3.7 µM 23% | [5]; [7] 30% | [5]; at 11.0 µM 13% | [5]; at 33.0 µM 34% | [5]; [8] 25% | [6]; [7] 45%
active: [1]; [8] 98% | [1]; at 50.0 µM 88.2% | [1]; at 100.0 µM 93% | [2]; [8] 98% | [2]; at 100.0 µM 93% | [5]; at 100.0 µM 91% | [6]; [8] 99% | [6]; at 50.0 µM 81.9%

O=[N+]([O-])c1ccc(N/N=C(/C=N/Nc2ccc([N+](=O)[O-])cc2[N+](=O)[O-])C(O)C(O)CO)c([N+](=O)[O-])c1 (stereo unspecified)
inactive: [1]; [7] 5% | [1]; [8] 15% | [1]; at 50.0 µM 29.9% | [2]; [7] 10% | [2]; [8] 33% | [2]; at 50.0 µM 18.2% | [3]; [7] -13% | [3]; [8] 50% | [4]; [7] -12% | [4]; [8] -14% | [4]; at 50.0 µM 4.25% | [5]; [7] -6% | [5]; [8] 13% | [5]; at 50.0 µM 3.95% | [6]; [7] 9% | [6]; [8] 60% | [6]; at 50.0 µM 36.9%
active: [3]; at 50.0 µM 72.2%

CCOC(=O)C1COP(=O)(N(CCCl)CCCl)N1 (stereo unspecified)
inactive: [1]; [7] 1% | [1]; [8] -1% | [1]; at 50.0 µM -17.7% | [2]; [7] -2% | [2]; [8] 3% | [2]; at 50.0 µM -5.15% | [3]; [7] 1% | [3]; [8] -4% | [3]; at 50.0 µM 4.9% | [4]; [7] -2% | [4]; [8] 3% | [4]; at 50.0 µM 37.2% | [5]; [7] 0% | [5]; [8] -1% | [5]; at 50.0 µM 5.3% | [6]; [7] 0% | [6]; [8] 6% | [6]; at 50.0 µM 1.05%

O=C(CSc1ccc([N+](=O)[O-])cc1[N+](=O)[O-])NCCNC(=O)CSc1ccc([N+](=O)[O-])cc1[N+](=O)[O-]
inactive: [1]; at 50.0 µM 57.5%
active: [1]; [7] 99% | [1]; [8] 99% | [2]; [7] 99% | [2]; [8] 99% | [2]; at 50.0 µM 92.5% | [3]; [7] 99% | [3]; [8] 99% | [3]; at 50.0 µM 91.5% | [4]; [7] 99% | [4]; [8] 99% | [4]; at 50.0 µM 91.8% | [5]; [7] 98% | [5]; [8] 98% | [5]; at 50.0 µM 93.4% | [6]; [7] 99% | [6]; [8] 99% | [6]; at 50.0 µM 87.8%

O=[N+]([O-])c1cc([N+](=O)[O-])c2nsnc2c1
inactive: [1]; at 1.2 µM 18% | [1]; [7] 69% | [2]; at 1.2 µM -1% | [2]; at 3.7 µM 15% | [2]; [7] -2% | [3]; [7] -19% | [4]; [7] -20% | [5]; at 1.2 µM 5% | [5]; at 3.7 µM 52% | [5]; [7] 5% | [6]; [7] 2%
active: [1]; at 3.7 µM 71% | [1]; at 11.0 µM 99% | [1]; at 33.0 µM 99% | [1]; [8] 98% | [1]; at 50.0 µM 99.6% | [1]; at 100.0 µM 99% | [2]; at 11.0 µM 100% | [2]; at 33.0 µM 100% | [2]; [8] 99% | [2]; at 50.0 µM 99.5% | [2]; at 100.0 µM 99% | [3]; [8] 99% | [3]; at 50.0 µM 99.2% | [4]; [8] 99% | [4]; at 50.0 µM 99.3% | [5]; at 11.0 µM 99% | [5]; at 33.0 µM 99% | [5]; [8] 98% | [5]; at 50.0 µM 99.2% | [5]; at 100.0 µM 98% | [6]; [8] 98% | [6]; at 50.0 µM 99.1%

O=[N+]([O-])C1([N+](=O)[O-])CC2(Cc3c1no[n+]3[O-])OCCO2
inactive: [1]; [7] 28% | [2]; [7] 19% | [3]; [7] 40% | [4]; [7] 16% | [5]; [7] 8% | [6]; [7] 26%
active: [1]; [8] 98% | [1]; at 50.0 µM 91.3% | [2]; [8] 96% | [2]; at 50.0 µM 92.4% | [3]; [8] 99% | [3]; at 50.0 µM 92.3% | [4]; [8] 71% | [4]; at 50.0 µM 89.3% | [5]; [8] 97% | [5]; at 50.0 µM 92% | [6]; [8] 99% | [6]; at 50.0 µM 90.9%

O=[P+](O)Oc1ccccc1
inactive: [1]; [7] -148% | [1]; [8] -105% | [1]; at 50.0 µM 3% and 7.65% | [2]; [7] -46% | [2]; [8] -47% | [2]; at 50.0 µM -0.25% and -32.6% | [3]; [7] -58% | [3]; [8] -46% | [3]; at 50.0 µM 10.8% and -16.4% | [4]; [7] -55% | [4]; [8] -56% | [4]; at 50.0 µM 14.1% and 1% | [5]; [7] -65% | [5]; [8] -74% | [5]; at 50.0 µM -0.3% and 4.45% | [6]; [7] -140% | [6]; [8] -92% | [6]; at 50.0 µM 3.3% and -16.7%

From PubChem BioAssay (NCI)
